System: rats
Conditions: oral, single dose

COc1cc(CN2CCN(C(=O)c3cc4ccccc4o3)CC2)cc(OC)c1OC.Cl [Working Example 7, 1-(2-benzofuranylcarbonyl)4-(3,4,5-trimethoxybenzyl)piperazine hydrochloride]
LD50 (estimated): ~1000 mg/kg
